Chains of the proteins cited; added tags and fusions are not shown. Residues count along the entry.
UniProt P00800, 233-548 limits assumed: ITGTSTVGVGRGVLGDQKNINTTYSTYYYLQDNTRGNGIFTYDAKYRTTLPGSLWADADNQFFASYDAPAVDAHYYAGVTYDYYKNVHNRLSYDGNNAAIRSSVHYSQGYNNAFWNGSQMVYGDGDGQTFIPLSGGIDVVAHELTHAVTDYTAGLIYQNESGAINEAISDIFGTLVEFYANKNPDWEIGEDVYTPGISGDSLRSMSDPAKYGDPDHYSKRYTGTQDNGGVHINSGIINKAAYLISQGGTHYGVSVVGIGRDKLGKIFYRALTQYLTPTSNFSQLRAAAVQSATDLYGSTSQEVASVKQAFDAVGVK

In US5420328A:

Target: thermolysin (Bacillus thermoproteolyticus, UniProt P00800)
Test: Ki values for thermolysin of peptidylphosphonates
Settings: read-out: Ki values for thermolysin

Row | Compound | Ki [µM] | Ki (D isomer (L/D isomers)) [µM] | Ki (L isomer (L/D isomers)) [µM]
1 | CC(C)C[C@H](OP(=O)(O)CNC(=O)OCc1ccccc1)C(=O)N[C@@H](C)C(=O)O | 13 |  | 
2 | CC(C)C[C@H](OP(=O)(O)[C@H](C)NC(=O)OCc1ccccc1)C(=O)N[C@@H](C)C(=O)O | 1.8 |  | 
3 | CC(C)C[C@H](OP(=O)(O)C(Cc1ccccc1)NC(=O)OCc1ccccc1)C(=O)N[C@@H](C)C(=O)O (stereo partly drawn) |  | 30 | 0.045
4 | CC(C)CC(NC(=O)OCc1ccccc1)P(=O)(O)O[C@@H](CC(C)C)C(=O)N[C@@H](C)C(=O)O (stereo partly drawn) |  | 42 | 0.68

Read-outs that look alike come from different tables or passages of the source.
